Bioassay records (PubChem BioAssay)
PglD DTNB: C. jejuni PglD acetyltransferase inhibitors, primary screen, biochemical, DTNB colorimetric, single point. purified PglD enzyme, DTNB colorimetric CoA detection. 360,000 compounds, 0.098% hits. inhibition, % at 12.5 µM. UDP-N-acetylbacillosamine N-acetyltransferase PglD (Campylobacter jejuni). AID 602405, 2012; in the data active means inhibition above about 16%, passing the limit was not always enough
Yeast UUG start-1: modulators of yeast start codon fidelity, primary screen, whole organism, S. cerevisiae, single point, plate reader | AID 602363, 2012 | S. cerevisiae UUG-firefly luciferase reporter, luminescence/redox ratio | activity score, % at 18.7 µM | hit rate 0.13% among 350,000;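 active = replicate mean at a twofold rise or more, about +100% in these data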;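 also: firefly luciferase made from a UUG start codon reports start codon fidelity; reporter light over untreated wells divided by growth signal over untreated wells; some hits fall short of that in this replicate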
RAD54 branch: inhibitors of human RAD54 branch migration, primary screen, biochemical, fluorescence, single point. DNA repair and recombination protein RAD54-like (Homo sapiens), Q92698. RAD54 Holliday junction branch migration, FAM/BHQ fluorescence. inhibition, % at 10.4 µM. 360,000 compounds, 0.14% hits. AID 602329, 2012;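 active means mean normalized replicate activity at least 40 and at least half of replicates scoring 40 or more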;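 further: inhibitors cause a drop in the FAM fluorescence signal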
CASP6 VEID inh: human caspase-6 inhibitors, primary screen, biochemical, VEID-R110 fluorescence, single point, set 2. P55212. purified caspase-6, Z-VEID-R110 cleavage fluorescence. inhibition, % at 12.5 µM. 350,000 compounds, 0.53% hits. AID 686996, 2013;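 active means mean inhibition across replicates at least about 35%, with every replicate also reaching that limit, limit read from the data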
RAD52 anneal inh: RAD52 DNA annealing inhibitors, primary screen, biochemical, FRET, single point, set 2; 360,000 compounds, 0.46% hits; recombinant RAD52 DNA annealing, FRET fluorescence; inhibition, % at 18.7 µM;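 active means every replicate showing at least 50% inhibition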
INS-1E GSIS act: GLuc luminescence reporter in INS-1E cells, primary screen for activators of glucose-dependent secretion of insulin | INS-1E GLuc reporter insulin secretion, 2-3 h | activation, % at 16.6 µM | 370,000 compounds, 0.61% hits;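 active means lowest replicate activation of at least 40%, so every replicate reaches that level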
Yeast UUG start-2: enhancers of UUG start codon usage in yeast, dose response, S. cerevisiae, UUG firefly luciferase, cherry-pick, set 2; shares compounds with Yeast UUG start-1; luminescence, 4 h; 100% means double the DMSO signal; activation, % at 38 µM; 540 tested, under 10 active;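 active means signal increase whose fitted curve reaches an absolute level of 40 at a concentration under 10 µM; inactive means activity opposite to the expected increase, or the rest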
Of the large screens only hits and unclear results are named; the others gave an inactive call (follow-up assays come after a bar, where they were run). A selection: hits, their analogues and other compounds. The true share with any hit is near 1.5%.

C[C@H](CO)N1C[C@H](C)[C@H](CN(C)C(=O)C2CCOCC2)Oc2cc(C#Cc3ccncc3)ccc2S1(=O)=O	Yeast UUG start-1 191 | Yeast UUG start-2 inactive
CNC[C@H]1Oc2cc(C#Cc3ccncc3)ccc2S(=O)(=O)N([C@H](C)CO)C[C@H]1C	Yeast UUG start-1 129 | Yeast UUG start-2 inactive
Cc1cc(Cl)ccc1NC(=S)NCCC(c1ccccc1)c1ccccc1	Yeast UUG start-1 112 (no result: CASP6 VEID inh, RAD52 anneal inh, INS-1E GSIS act) | Yeast UUG start-2 inactive
Cc1c(Cl)cccc1NC(=S)NCCC(c1ccccc1)c1ccccc1	none (no result: CASP6 VEID inh, RAD52 anneal inh)
N#CCC(=O)Nc1ccc(C(=O)OCC(=O)Nc2cc(-c3ccccc3)nn2-c2ccccc2)cc1	none (no result: INS-1E GSIS act)
CCC(=O)N(C)C[C@H]1Oc2cc(C#CCC3CCCC3)ccc2S(=O)(=O)N([C@H](C)CO)C[C@H]1C	none
CCC(=O)N(C)C[C@@H]1Oc2cc(C#CCC3CCCC3)ccc2S(=O)(=O)N([C@H](C)CO)C[C@H]1C	none
C[C@H](CO)N1C[C@H](C)[C@H](CN(C)C(=O)CN(C)C)Oc2cc(C#CCC3CCCC3)ccc2S1(=O)=O	Yeast UUG start-1 107 | Yeast UUG start-2 inactive
C[C@@H]1CN([C@H](C)CO)S(=O)(=O)c2ccc(C#CCC3CCCC3)cc2O[C@@H]1CN(C)C(=O)CN(C)C	Yeast UUG start-1 129 | Yeast UUG start-2 inactive
O=C(O)Cc1csc(NC(=O)c2ccco2)n1	Yeast UUG start-1 373 (no result: CASP6 VEID inh, RAD52 anneal inh) | Yeast UUG start-2 inactive
O=C(CNC(=S)NC(=O)C1CCCCC1)c1ccccc1	Yeast UUG start-1 523 | Yeast UUG start-2 inactive
O=C(NC(=S)NCCc1ccccc1)C1CCCCC1	none (no result: INS-1E GSIS act)
O=C(NCCc1ccccc1)[C@H]1[C@H](CO)[C@H]2Cn3c(ccc(-c4cccc(F)c4)c3=O)[C@@H]1N2	none (no result: Yeast UUG start-1)
COC(=O)c1c2oc(c1C(=O)OC)C(=O)N[C@@H](Cc1ccccc1)Cn1cc(nn1)CNC(=O)[C@@H](Cc1ccccc1)NC(=O)N[C@@H](CO)CC2	Yeast UUG start-1 116 (no result: INS-1E GSIS act) | Yeast UUG start-2 inactive
COc1ccc(-c2oc(NC(=O)CCl)c(C#N)c2-c2ccc(OC)cc2)cc1	Yeast UUG start-1 308 (no result: CASP6 VEID inh, RAD52 anneal inh, INS-1E GSIS act) | Yeast UUG start-2 inactive
CCCC(=O)Nc1ccc2c(c1)C(=O)N(C)C[C@@H](OC)[C@@H](C)CN(Cc1ccc(F)cc1)[C@H](C)CO2	none (no result: PglD DTNB, Yeast UUG start-1, RAD54 branch, CASP6 VEID inh, RAD52 anneal inh)
COC1(OC)C(/C=C/c2ccc(C)cc2)C(C#N)(C#N)C1(OC)OC (configuration not stated)	Yeast UUG start-1 549 (no result: CASP6 VEID inh, RAD52 anneal inh, INS-1E GSIS act) | Yeast UUG start-2 inactive
COc1ccc(Nc2nc3ccccc3n2C)cc1	none | Yeast UUG start-2 inactive
Cn1c(Nc2ccc(F)cc2)nc2ccccc21	none (no result: INS-1E GSIS act)
O=C(Cn1nnc(-c2cccc(C(F)(F)F)c2)n1)N1CCCCCC1	none (no result: CASP6 VEID inh, RAD52 anneal inh)
C=CCN(c1ccccc1)S(=O)(=O)c1cccc(C(=O)NNC(=O)c2ccccc2O)c1	none
C=CCN(c1ccccc1)S(=O)(=O)c1cccc(C(=O)O)c1	Yeast UUG start-1 519 (no result: CASP6 VEID inh, RAD52 anneal inh, INS-1E GSIS act) | Yeast UUG start-2 inactive
CCc1[nH]c(C)c(C(C)=O)c1C	Yeast UUG start-1 416 (no result: CASP6 VEID inh, RAD52 anneal inh, INS-1E GSIS act) | Yeast UUG start-2 inactive
Cc1occc1C(=O)N1CCCC(N2CCN(c3ccccc3F)CC2)C1 (configuration not stated)	none
CCOc1ccccc1Nc1nc2ccccc2n1C(C)C	none | Yeast UUG start-2 inactive
CC(C)n1c(Nc2ccccc2)nc2ccccc21	none (no result: CASP6 VEID inh, RAD52 anneal inh, INS-1E GSIS act)
C[C@H](CO)N1C[C@H](C)[C@@H](CN(C)C(=O)NC2CCCCC2)Oc2ccc(NC(=O)C3CCCCC3)cc2CC1=O	none
C[C@@H]1CN([C@@H](C)CO)C(=O)Cc2cc(NC(=O)C3CCCCC3)ccc2O[C@H]1CN(C)C(=O)NC1CCCCC1	Yeast UUG start-1 47 | Yeast UUG start-2 inactive
O=C(Nc1ccc([N+](=O)[O-])cc1)C(=O)Nc1cccc(C(=O)O)c1	Yeast UUG start-1 171 | Yeast UUG start-2 inactive
Cc1cc(OCCCCNC(C)C)cc(C(C)C)c1	Yeast UUG start-1 229 (no result: CASP6 VEID inh, RAD52 anneal inh) | Yeast UUG start-2 inactive
Cc1cccc(/C=N/NC(=O)c2cc(C3CC3)nc3ccccc23)n1	none
